From ChEMBL document CHEMBL4376805, “Plasmodium Purine Metabolism and Its Inhibition by Nucleoside and Nucleotide Analogues” (J Med Chem, 2019) come the findings set out here.

The target of the test is T1, Adenosine deaminase (Plasmodium falciparum, UniProt Q86GS5).
T1 sequence (Q86GS5 whole entry): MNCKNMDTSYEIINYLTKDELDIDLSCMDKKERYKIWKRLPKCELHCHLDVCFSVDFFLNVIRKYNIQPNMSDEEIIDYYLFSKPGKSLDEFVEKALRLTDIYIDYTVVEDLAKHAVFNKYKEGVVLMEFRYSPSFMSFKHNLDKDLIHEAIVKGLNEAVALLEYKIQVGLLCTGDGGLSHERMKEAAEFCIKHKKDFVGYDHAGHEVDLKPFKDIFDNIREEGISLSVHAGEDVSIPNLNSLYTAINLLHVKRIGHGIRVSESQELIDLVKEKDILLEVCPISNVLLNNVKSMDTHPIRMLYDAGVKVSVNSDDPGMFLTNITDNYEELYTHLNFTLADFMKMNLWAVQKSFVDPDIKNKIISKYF
The test can be described thus: Inhibition of Plasmodium falciparum N-terminal thrombin cleavable His6-tagged ADA expressed in Escherichia coli BL21 assessed as equilibrium dissociation constant by measuring reduction in formation of inosine using adenosine as substrate.

Each structure is given as a SMILES string.

Take `OC[C@H]1O[C@@H](n2cnc3c2NC=NC[C@H]3O)C[C@@H]1O` [PENTOSTATIN]: the Ki – broadly, the dissociation constant of the complex between target and ligand, obtained from inhibition or displacement – stood at 38 pM.
